Reference: US9827212B2, “Compositions and methods for treating asthma and other lung diseases” (THE TRUSTEES OF THE UNIVERSITY OF PENNSYLVANIA, priority 2010, dated 2017)

Assays:
[1] = system: naïve mice challenged with methacholine; assay: Invasive lung function (FlexiVent), methacholine challenge, naïve mice; format: in vivo
Experimental: (§1) Lung resistance, compliance, elastance, tissue damping, tissue elastance, and airway resistance were recorded using the FlexiVent system (SCIREQ Scientific Respiratory Equipment Inc). The FlexiVent System Overview is shown in FIG. 1B: FlexiVent is a modular, multi-functional device that performs both mechanical ventilation and detailed measurements of respiratory mechanics in subjects.
The mice were anesthetized by an I.P. injection of a Ketamine (100 mg/kg) and Xylazine (20 mg/kg) mixture. After anesthesia, a half centimeter incision was made from the rostal to caudal direction; the flap of skin was retracted and the connective tissue was dissected away, and the trachea was exposed. The trachea was then cannulated between the second and third cartilage rings with a blunt-end stub adapter. The cannula was secured with suture. The mice were next connected to the Flexivent system. All spontaneous respirations were stopped with an intramuscular injection of Pancuronium Bromide (3 mg/kg) and the mice were then mechanically ventilated at respiratory rate of 140 beats/per minute with 0.25 ml of tidal volume. The Flexivent system then briefly interrupted the mechanical ventilation to apply a test signal, or perturbation to measure the respiratory mechanics. The respiratory mechanics were then calculated from the data collected while the perturbation was applied. […]

[2] = system: mice sensitized and challenged with Aspergillus fumigatus (AF); assay: Invasive lung function (FlexiVent), methacholine challenge, Aspergillus fumigatus sensitized and challenged mice; format: in vivo; conditions: TSA 0.6 mg/kg i.p., dexamethasone 2.5 mg/kg i.p.
Experimental: Mice were sensitized by intraperitoneal (I.P.) injections of 20 μg allergen, a protein extract of the ubiquitous, airborn fungus, Aspergillus fumigatus (AF), (Bayer Pharmaceuticals), in 100 μl PBS solution containing 2 mg of alum (Imject Alum, Pierce) on days 0 and 14 and challenged on days 25, 26, and 27 with 30 μl of Af extract in PBS (25 μg) intranasally (i.n.) (FIG. 1).
as §1
The mice were anesthetized by an I.P. injection of a Ketamine (100 mg/kg) and Xylazine (20 mg/kg) mixture. After anesthesia, a half centimeter incision was made from the rostal to caudal direction; the flap of skin was retracted and the connective tissue was dissected away, and the trachea was exposed. The trachea was then cannulated between the second and third cartilage rings with a blunt-end stub adapter. The cannula was secured with suture. The mice were next connected to the Flexivent system. […] The respiratory mechanics were then calculated from the data collected while the perturbation was applied. […]

CC(/C=C/C(=O)NO)=C\[C@@H](C)C(=O)c1ccc(N(C)C)cc1 [TSA, Trichostatin A]
lung resistance to methacholine challenge relative to baseline ([1]; TSA 0.6 mg/kg i.p.): below baseline
Emax of airway (lung) resistance in response to methacholine ([1]; TSA 0.6 mg/kg i.p. in DMSO, dexamethasone 2.5 mg/kg i.p.): 1.0 cmH2O/mL
Emax of airway resistance in response to methacholine [2]: 6 cmH2O/mL
